pKi value data for one substance are collected here from patent US7317007B2, “Benzothiazole derivatives with activity as adenosine receptor ligands” (Hoffmann-La Roche Inc., priority 2000, dated 2008).

The test addresses T1, human adenosine A2A receptor (Homo sapiens, UniProt P29274).
T1 construct: expressed in transfected cells; host or cells: CHO cells, Semliki Forest virus expression system; washed membrane pellet used
In words: [3H]-SCH-58261 binding assay at the human adenosine A2A receptor. The conditions noted are these: hA2A binding; [3H]-SCH-58261 1 nM; membranes of CHO cells recombinantly expressing the receptor; Ki by Cheng-Prussoff equation. How it is done: Human Adenosine A2A Receptor
The human adenosine A2A receptor was recombinantly expressed in chinese hamster ovary (CHO) cells using the semliki forest virus expression system. Cells were harvested, washed twice by centrifugation, homogenised and again washed by centrifugation. The final washed membrane pellet was suspended in a Tris (50 mM) buffer containing 120 mM NaCl, 5 mM KCl, 2 mM CaCl2 and 10 mM MgCl2 (pH 7.4) (buffer A). The [^3H]-SCH-58261 (Dionisotti et al., 1997, Br J Pharmacol 121, 353; 1 nM) binding assay was carried out in 96-well plates in the presence of 2.5 μg of membrane protein, 0.5 mg of Ysi-poly-1-lysine SPA beads and 0.1 U adenosine deaminase in a final volume of 200 μl of buffer A. Non-specific binding was defined using xanthine amine congener (XAC; 2 μM). Compounds were tested at 10 concentrations from 10 μM-0.3 nM. All assays were conducted in duplicate and repeated at least two times. Assay plates were incubated for 1 hour at room temperature before centrifugation and then bound ligand determined using a Packard Topcount scintillation counter. IC50 values were calculated using a non-linear curve fitting program and Ki values calculated using the Cheng-Prussoff equation.

“1-Oxo-1l 4-thiomorpholine-4-carboxylic acid (4-methoxy-7-phenyl-benzothiazol-2-yl)-amide [Example 159]”: the pKi value is 8.9.
